# OPERA 2.9 data: logP (octanol/water) values

Source: data files of OPERA 2.9 (Mansouri et al.), github.com/kmansouri/OPERA.

logP is the log10 of the octanol-water partition coefficient; higher is more lipophilic. Cells with "–" have no entry in this list.

For Cc1ccc(-c2ccc(B(O)O)c(F)c2)cc1 [(4'-Methyl-3-fluoro[1,1'-biphenyl]-4-yl)-boronic acid] the data give logP 3.8.
For O/C(=N\c1ccc2nc(O)[nH]c2c1)c1cc2ccccc2cc1O.[HH].[Na+] the data give logP 2.02.
For CCCCNCCO [Ethanol, 2-(butylamino)-] the data give logP 0.64.
For COc1ccc2c(c1)CCCC2=CCC1(C)C(=O)CCC1=O the data give logP 3.8.
For Cc1cc([NH-])c([NH-])cc1C.[Cl-].[Cl-].[Pt+4] the data give logP -0.23.
For NC(=O)NC(=O)[O-].[K+] [Potassium carbamoylcarbamate] the data give logP -1.08.
For NCCCCCCCCCCCC(=O)O [12-Aminododecanoic acid] the data give logP -0.18.
For Cl.Nc1c(OCCO)nn2ccccc12 the data give logP -3.1.
For CCCCCCCC/C=C\CCCCCCCCNCCCNCCCNCCCN the data give logP -0.3.
For O=[N+]([O-])c1cc(S(=O)(=O)[O-])ccc1Cl.[Na+] [Sodium 3-nitro-4-chlorobenzenesulfonate] the data give logP -2.49.
For CCCCCCCCCCCC(=O)N[C@@H](CCCNC(=N)N)C(=O)OCC.Cl [Ethyl-N2-dodecanoyl-L-argininate hydrochloride] the data give logP 1.43.
For SCCSCCS [2,2'-Sulfanediyldiethanethiol] the data give logP 2.52.
For N#CC(CCBr)(c1ccccc1)c1ccccc1 [4-Bromo-2,2-diphenylbutanenitrile] the data give logP 4.2.
For O=C([O-])c1ccccc1-c1c2ccc3cc([O-])ccc3c2oc2c1ccc1cc(=O)ccc12.[Na+].[Na+] the data give logP -1.7.
For NCCS(=O)(=O)O [l-Taurine] the data give logP -1.3.
For O=C1c2ccccc2C(=O)N1C[C@H]1CN(c2ccc(N3CCOCC3=O)cc2)C(=O)O1 the data give logP -0.2.
For Cc1ccccc1N1CCN(CCc2nnc3n2CCCC3)CC1 [Dapiprazole] the data give logP 2.3.
For Nc1ccc(N2CCOCC2=O)cc1 [4-(4-aminophenyl)morpholin-3-one] the data give logP -0.8.
For O=C(O)c1cc(=O)n(CCO)c(=O)[nH]1 the data give logP -1.48.
For O=C(O[C@@H](C(=O)O)[C@@H](OC(=O)c1ccccc1)C(=O)O)c1ccccc1 [Dibenzoyl-L-tartaric acid] the data give logP 1.01.
For Cn1cc(C(=O)Nc2cccc3c2C2CCC3C2=C(Cl)Cl)c(C(F)F)n1 (stereo not drawn) [Benzovindiflupyr] the data give logP 4.3.
For Cc1c(N=Nc2ccc(Cl)c(Cl)c2)c(O)n(C)c(=O)c1C#N [C.I. Disperse Yellow 241] the data give logP 4.2.
For CC(=O)c1ccc(Oc2ccc(Cl)cc2)cc1Cl [1-[2-Chloro-4-(4-chlorophenoxy)phenyl]ethan-1-one] the data give logP 4.52.
For CC1(C)[C@H]2CC[C@]3(C2)[C@H]1C1(CCC3(C)C)OCCO1 the data give logP 5.69.
For CN1CCCN=C1COC(=O)C(O)(c1ccccc1)C1CCCCC1 (stereo not drawn) [Oxyphencyclimine] the data give logP 3.7.
For CC1(C)S[C@@H]2[C@H](N3C(=O)C(c4ccccc4)NC3(C)C)C(=O)N2[C@H]1C(=O)O (some centres not stated) [Hetacillin] the data give logP 1.3.
For Clc1cc(Cl)c(Cl)c(-c2ccc(Cl)c(Cl)c2)c1 [2,3,3',4',5-Pentachlorobiphenyl] the data give logP 6.71.
For CCCCC(CC)(CO)CO [2-Butyl-2-ethyl-1,3-propanediol] the data give logP 2.105.
For CCCCCCCC[N+](C)(C)C.[I-] [N,N,N-Trimethyloctan-1-aminium iodide] the data give logP -1.07.
For CCOC(=O)[C@@]12CCC[C@@H]1[C@@H]1CC[C@H]2C1 (relative stereo) the data give logP 4.
For Cc1nc(C)n(C)c1C [1,2,4,5-Tetramethyl-1H-imidazole] the data give logP 2.58.
For O=C(OCC1CCC2OC2C1)C1CCC2OC2C1 (stereo not drawn) [ECC] the data give logP 1.34.
For CC(=O)OC(C)(C)Cc1ccccc1 [Dimethylbenzylcarbinyl acetate] the data give logP 3.64.
For C1N2CN3CN1CN(C2)C3 [Methenamine] the data give logP -2.18.
For [Br-].c1ccc(C[n+]2ccccc2)cc1 [1-Benzylpyridin-1-ium bromide] the data give logP -2.62.
For COc1ccccc1N1CCN(CCC=Cc2ccc(F)cc2)CC1 the data give logP 4.7.
For C/C(=C\c1ccc(C)cc1)CCC=O [4-Pentenal, 4-methyl-5-(4-methylphenyl)-, (4E)-] the data give logP 3.12.
For O=C(O)[C@H]1/C(=C/CO)O[C@@H]2CC(=O)N21 [Clavulanic acid] the data give logP -1.5.
For C[N+](C)(C)c1cccc([N+](=O)[O-])c1.[Cl-] [N,N,N-Trimethyl-3-nitroanilinium chloride] the data give logP 0.001.
For CCC(=O)NCC[C@@H]1CCc2ccc3c(c21)CCO3 [Ramelteon] the data give logP 2.4.
For C=C[C@]1(C)CC[C@@H](C(C)(C)O)C[C@H]1C(=C)C the data give logP 3.68.

A selection of 6 entries from above:

| SMILES | name | logP |
|---|---|---|
| Nc1ccc(N2CCOCC2=O)cc1 | 4-(4-aminophenyl)morpholin-3-one | -0.8 |
| Cl.Nc1c(OCCO)nn2ccccc12 | – | -3.1 |
| CC1(C)S[C@@H]2[C@H](N3C(=O)C(c4ccccc4)NC3(C)C)C(=O)N2[C@H]1C(=O)O (some centres not stated) | Hetacillin | 1.3 |
| Clc1cc(Cl)c(Cl)c(-c2ccc(Cl)c(Cl)c2)c1 | 2,3,3',4',5-Pentachlorobiphenyl | 6.71 |
| CCOC(=O)[C@@]12CCC[C@@H]1[C@@H]1CC[C@H]2C1 (relative stereo) | – | 4 |
| Cc1ccc(-c2ccc(B(O)O)c(F)c2)cc1 | (4'-Methyl-3-fluoro[1,1'-biphenyl]-4-yl)-boronic acid | 3.8 |

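OPERA's authors assembled the values from existing databases and did not measure them anew. One number stands for a compound and property, with no spread given. Conditions of the individual experiments are not part of the data. A value may pool stereoisomers or salt forms, and the file does not say which form was measured. Some upstream entries may be estimates or bounds without being marked so.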